Biological target: Recombinant human PSMA (rhPSMA) (Homo sapiens, UniProt Q04609)
Experiment: NAALADase assay (competitive inhibition, Amplex Red glutamate readout)
Settings: read-out: IC50, nM (NAALADase), substrate Ac-Asp-Glu, 1 h 37 °C

Protein sequences, listed by entry. Tags and fused reporters are not part of them.
UniProt Q04609, whole entry: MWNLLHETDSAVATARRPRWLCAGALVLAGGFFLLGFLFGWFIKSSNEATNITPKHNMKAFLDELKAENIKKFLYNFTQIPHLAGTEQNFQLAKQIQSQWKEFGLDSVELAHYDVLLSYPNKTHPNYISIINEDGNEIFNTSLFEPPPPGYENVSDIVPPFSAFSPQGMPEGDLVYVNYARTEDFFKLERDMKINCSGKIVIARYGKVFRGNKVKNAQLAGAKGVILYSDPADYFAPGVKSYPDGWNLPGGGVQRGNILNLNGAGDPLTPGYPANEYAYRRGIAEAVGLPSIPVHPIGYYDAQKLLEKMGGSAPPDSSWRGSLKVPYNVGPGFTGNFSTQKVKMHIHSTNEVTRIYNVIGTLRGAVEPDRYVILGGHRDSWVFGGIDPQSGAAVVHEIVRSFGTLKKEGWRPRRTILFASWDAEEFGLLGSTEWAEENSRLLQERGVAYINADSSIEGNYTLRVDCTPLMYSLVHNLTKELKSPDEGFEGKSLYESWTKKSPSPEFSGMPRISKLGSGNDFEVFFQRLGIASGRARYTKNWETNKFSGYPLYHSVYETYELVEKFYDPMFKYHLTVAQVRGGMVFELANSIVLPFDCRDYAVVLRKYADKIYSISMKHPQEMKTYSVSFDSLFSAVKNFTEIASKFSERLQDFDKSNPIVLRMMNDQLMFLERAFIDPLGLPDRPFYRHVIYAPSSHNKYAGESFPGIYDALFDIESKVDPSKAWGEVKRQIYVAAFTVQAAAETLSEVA

IC50: 3.17 nM
Structure (SMILES): CC(C)C[C@H](NC(=O)[C@H](Cc1ccccc1)NC(=O)[C@@H](N)CN)[C@@H](O)CC(=O)NCCCCCC(=O)NCCCC[C@H](NC(=O)N[C@@H](CCC(=O)O)C(=O)O)C(=O)O [Compound 15]

From PMC10223019, “Preclinical Evaluation of a PSMA-Targeting Homodimer with an Optimized Linker for Imaging of Prostate Cancer” (Molecules, 2023)
